The list shows a part of the results, in another mix than the full data. Some salts and complexes are drawn in separate pieces, as the source files them; their charges need not balance. Activity calls are given as the source filed them. Cut-off read from the data, not from the text of the source: active = inhibition above about 80%; inconclusive = no clear call, values can overlap the other calls; inactive = below that.

What is called inhibition is the change of the read-out against control, counted positive when it falls.

The test can be described thus: NOMO-1 AML cell viability reduction, primary screen, STK33 inhibitor project, CellTiter-Glo luminescence (AID 2330). To be noted: NOMO-1 AML viability, 72 h, hits give high values, concentration not given here.
With `C/C1=C2N=C(/C=C3N=C(/C(C)=C4\[N-][C@@](C)([C@@H]5N=C1[C@](C)(CCC(=O)NCC(C)OP(=O)(O)O[C@@H]1[C@H](O)[C@H](n6cnc7cc(C)c(C)cc76)O[C@H]1CO)[C@H]5CC(N)=O)[C@@](C)(CC(N)=O)[C@@H]4CCC(N)=O)[C@@](C)(CC(N)=O)[C@@H]\3CCC(N)=O)C(C)(C)[C@@H]/2CCC(N)=O.[C-]#N.[Co+3]` (some centres not stated), the inhibition was inactive: 16.4%.

In the case of `CC(Cc1ccc(O)cc1)NCC(O)c1cc(O)cc(O)c1` (configuration not stated), the inhibition was inactive: -10%.

For `O=C(OC1CN2CCC1CC2)c1ccc(Cl)cc1` (configuration not stated), the inhibition was inactive: 13.8%.

As to `Cc1ccc(C(=O)OC2CN3CCC2CC3)cc1` (configuration not stated), the inhibition was inactive: -8.04%.

Consider `O=P1(Nc2ccccn2)COc2ccccc2OC1`, for which the inhibition was inactive: 21.7%.

`COc1cc2c(cc1NP(C)(=O)Oc1ccccc1)oc1ccccc12` (configuration not stated): the inhibition was inactive: 62.5%.

For `CN(C(=O)Cc1ccc(Cl)c(Cl)c1)[C@H]1CCCC[C@@H]1N1CCCC1`, the inhibition was inactive: 25.7%.

Values taken from PubChem BioAssay AID2330 (Broad Institute, 2010).
